Measurements published in patent publication US20040142317A1, “Use of amino acid transporter atbo,+ as a delivery system for drugs and prodrugs” (priority 2003, published 2004).

Each compound was assayed against T1, mb^0,+ AT rBAT complex (Mus musculus, UniProt Q9QXA6) (assay: cell-based).
T1 sequence (Q9QXA6 1-487): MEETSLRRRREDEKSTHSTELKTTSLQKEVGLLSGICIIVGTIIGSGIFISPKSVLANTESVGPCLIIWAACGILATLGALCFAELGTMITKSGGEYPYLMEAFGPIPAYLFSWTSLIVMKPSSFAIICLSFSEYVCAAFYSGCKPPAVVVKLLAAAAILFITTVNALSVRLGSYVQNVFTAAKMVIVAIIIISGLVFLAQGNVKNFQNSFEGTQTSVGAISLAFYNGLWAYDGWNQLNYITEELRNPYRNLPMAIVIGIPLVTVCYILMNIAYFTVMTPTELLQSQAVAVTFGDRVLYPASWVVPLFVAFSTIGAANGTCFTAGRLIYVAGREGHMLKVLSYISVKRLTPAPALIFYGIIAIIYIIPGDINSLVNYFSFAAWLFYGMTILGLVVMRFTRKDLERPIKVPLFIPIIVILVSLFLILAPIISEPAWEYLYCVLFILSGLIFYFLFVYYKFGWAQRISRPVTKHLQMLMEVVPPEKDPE

| SMILES | Ki [µM] |
| --- | --- |
| C[C@H](N)C(=O)O [Alanine] | 804 ± 142 |
| N[C@H](C(=O)O)c1ccccc1 [Phenylglycine, L-phenylglycine] | 283 ± 84.4 |
| N[C@@H](Cc1ccccc1)C(=O)O [Phenylalanine] | 586 ± 215 |
